The results in this text go back to US20110306035A1, “Methods and Compositions for Detection of a Pathogen, Disease, Medical Condition, or Biomarker Thereof” (priority 2008, published 2011).

The test relates to Enterovirus 3C protease. Put plainly: Enterovirus assay in clinical CSF samples (vs RT-PCR). The test is classed as biochemical. The note with it: bacterial samples 23-25; new assay conditions.

Take `O=C(O)c1cccc(C(=O)O)n1` [2,6-pyridinedicarboxylic acid]: the “effect on unspecific background activity of bacterial CSF samples” value is “could not abolish”.
